The numbers were not newly measured in PMC4529489, which cites them from elsewhere.

Amino acid sequences for entries named in this document (tags omitted). Residues count along the entry.
UniProt Q15819, 2-145: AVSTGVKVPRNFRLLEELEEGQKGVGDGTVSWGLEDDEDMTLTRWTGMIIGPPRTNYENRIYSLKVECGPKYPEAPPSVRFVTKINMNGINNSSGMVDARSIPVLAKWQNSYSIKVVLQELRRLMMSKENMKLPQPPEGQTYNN

In general, Kd refers to the free concentration of one partner at which half of the binding sites on the other are occupied at equilibrium, for simple one-to-one binding.

This data set addresses Ube2V2 (Homo sapiens) (UniProt Q15819). The note with it: cited from earlier work.

Regarding Ubiquitin (from UniProt P0CG47), the Kd is 30 µM.
